Consider 1 compound from patent US9695160B2, “Piperazine derivatives for treating disorders” (THE UNIVERSITY OF NOTTINGHAM, priority 2014, dated 2017).

The chains behind the UniProt entries cited, without tags or fusion partners.
UniProt Q96SB4, whole entry: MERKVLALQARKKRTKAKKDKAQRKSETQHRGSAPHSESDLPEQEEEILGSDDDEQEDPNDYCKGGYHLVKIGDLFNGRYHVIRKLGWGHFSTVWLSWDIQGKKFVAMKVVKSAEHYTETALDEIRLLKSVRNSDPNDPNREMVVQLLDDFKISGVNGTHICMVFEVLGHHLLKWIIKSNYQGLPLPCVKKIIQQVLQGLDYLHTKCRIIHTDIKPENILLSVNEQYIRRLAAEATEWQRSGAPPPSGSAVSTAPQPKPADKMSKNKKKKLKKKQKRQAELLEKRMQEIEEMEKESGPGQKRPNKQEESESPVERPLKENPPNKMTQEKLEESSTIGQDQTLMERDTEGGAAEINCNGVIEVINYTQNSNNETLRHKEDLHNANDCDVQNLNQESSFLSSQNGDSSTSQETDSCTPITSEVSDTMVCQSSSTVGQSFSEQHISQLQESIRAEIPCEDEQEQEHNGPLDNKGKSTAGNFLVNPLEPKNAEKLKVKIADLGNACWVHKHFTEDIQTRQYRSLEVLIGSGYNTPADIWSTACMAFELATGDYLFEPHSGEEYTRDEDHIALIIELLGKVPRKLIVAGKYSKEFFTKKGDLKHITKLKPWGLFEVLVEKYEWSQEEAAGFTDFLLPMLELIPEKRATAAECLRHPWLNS

For this test, the target named is SRPK1 (Homo sapiens (Human), UniProt Q96SB4). Nature of the test: In vitro kinase assay (Kinase-Glo), SRPK1 inhibition. The following applies: Table 2, SRPK1 inhibition assay. It counts as biochemical.

With `O=C(Nc1cc(C(F)(F)F)ccc1N1CCN(Cc2ccccc2)CC1)c1ccc(-c2ccc3[nH]ccc3c2)o1` [Compound 24], it took 3.51 µM to reach half-maximal inhibition (IC50).
